Measurements: patent US20200078393A1, “COMPOSITION COMPRISING HYDROGEN GAS FOR SUPPRESSION OR PREVENTION OF CANCER METASTASIS” (MiZ Company Limited, priority 2018, published 2020)

What was measured:
[1] = tested on: Lewis Lung Carcinoma cells (LLC); experiment: Mouse lung cancer cell transplantation model, hydrogen gas inhalation
lung adenocarcinoma = experiment: Case of lung adenocarcinoma with spine metastases, continuous hydrogen gas inhalation
[2] = tested on: undifferentiated soft tissue sarcoma; experiment: Case of undifferentiated soft tissue sarcoma metastasized to the lungs, hydrogen gas inhalation; details: 3 months after inhalation started; hydrogen 6.6% by volume, 60 to 90 minutes once or twice a day
pancreatic cancer = experiment: Case of stage 4 pancreatic cancer with liver metastasis, hydrogen gas inhalation; details: hydrogen 6.6% by volume, 90 minutes twice a day

hydrogen
mice with no engraftment of the lung cancer cells detected ([1]; hydrogen 3.5%, atmospheric pressure of 1.35, 1 hour a day for 7 days from day 8, group of 5 mice): 2
mice with metastasis of the lung cancer cells to other organs ([1]; hydrogen 3.5%, atmospheric pressure of 1.35, 1 hour a day, visual observation of dissected mice, control: 2 among 4 mice): no mouse among 5 mice
cell densities of lung cancer cells in HE-stained lung tissue ([1]; optical microscope x200 and x400, control: high cell densities): comparatively low
tumors metastasized to the spine by CT examination (lung adenocarcinoma; Dec. 22, 2018, hydrogen 6 to 7% by volume, 2 to 3 hours/day from Oct. 17, 2018): regression
CEA value (lung adenocarcinoma; Dec. 27, 2018, hydrogen inhalation from Oct. 17, 2018): 2.6 ng/mL
CEA value (lung adenocarcinoma; Jan. 28, 2019, hydrogen inhalation from Oct. 17, 2018): 1.5 ng/mL
CEA value (lung adenocarcinoma; Nov. 26, 2018, hydrogen 6 to 7% by volume, 2 to 3 hours/day from Oct. 17, 2018, 34.5 in July 2018 before inhalation): 10 ng/mL
change in size of lung sarcomas [2]: no change detected
change in size of the pancreatic cancer and the cancers metastasized to the liver (pancreatic cancer; 2 months after inhalation started): no change detected
change in size of the pancreatic cancer and the cancers metastasized to the liver (pancreatic cancer; 6 months after inhalation started): no change detected
